For series [1] the following is noted: 25 °C; for Solubility in chloroform: ET(30) 39.1; for Solubility in diethyl ether: ET(30) 34.5; for Solubility in ethanol: ET(30) 51.9; for Solubility in ethyl acetate: ET(30) 38.1; for Solubility in n-hexane: ET(30) 31.0; for Solubility in toluene: ET(30) 33.9; for Solubility in water: ET(30) 63.1.
A short description of series [2]: Thermogravimetric analysis (thermal stability, TG). The settings on record: heating 10 °C min^−1, air atmosphere.

Experimental findings from PMC6983093 (2019) are described below.

Take L-Valine Butyl Ester Ketoprofenate: in series [1], the Solubility in chloroform entry is given as “+ (soluble >100 g L^−1)”, the “Solubility in diethyl ether” value is “− (insoluble <33 g L^−1)”, the Solubility in ethanol entry is listed as “+ (soluble >100 g L^−1)” and the “Solubility in ethyl acetate” value is “− (insoluble <33 g L^−1)”. In addition, in series [1], the Solubility in n-hexane result is on record as “− (insoluble <33 g L^−1)”, the Solubility in toluene result is reported as “+ (soluble >100 g L^−1)” and the Solubility in water entry is “− (insoluble <33 g L^−1)”.

“L-Valine Ethyl Ester Ketoprofenate [[L-ValOEt][KETO]]”: in series [1], the Solubility in chloroform entry was “+ (soluble >100 g L^−1)”, the “Solubility in diethyl ether” value is recorded as “+/− (partially soluble 33–100 g L^−1)”, the Solubility in ethanol entry was “+ (soluble >100 g L^−1)” and the “Solubility in ethyl acetate” value is reported as “− (insoluble <33 g L^−1)”. Also, in series [1], the Solubility in n-hexane entry is reported as “− (insoluble <33 g L^−1)”, the Solubility in toluene result is “− (insoluble <33 g L^−1)” and the Solubility in water result is “− (insoluble <33 g L^−1)”.

For the substance “L-Valine Propyl Ester Ketoprofenate [[L-ValOPr][KETO]]”, in series [1], the Solubility in chloroform result is listed as “+ (soluble >100 g L^−1)”, the “Solubility in diethyl ether” value is “+/− (partially soluble 33–100 g L^−1)”, the Solubility in ethanol result is recorded as “+ (soluble >100 g L^−1)” and the “Solubility in ethyl acetate” value was “+ (soluble >100 g L^−1)”. In series [1], the Solubility in n-hexane result is “− (insoluble <33 g L^−1)”, the Solubility in toluene result is “+ (soluble >100 g L^−1)” and the Solubility in water entry is given as “− (insoluble <33 g L^−1)”.

L-Leucine Ethyl Ester Ketoprofenate: in series [2], the “Tonset (onset of the thermal degradation)” value was determined as 95.7 °C. Further, in series [1], the Solubility in chloroform entry was “+/− (partially soluble 33–100 g L^−1)”, the “Solubility in diethyl ether” value is on record as “− (insoluble <33 g L^−1)”, the Solubility in ethanol entry is recorded as “+/− (partially soluble 33–100 g L^−1)” and the “Solubility in ethyl acetate” value is given as “− (insoluble <33 g L^−1)”. For the same substance, in series [1], the Solubility in n-hexane entry is recorded as “− (insoluble <33 g L^−1)”, the Solubility in toluene entry is “+ (soluble >100 g L^−1)” and the Solubility in water entry was “− (insoluble <33 g L^−1)”.

Take “L-Valine Isopropyl Ester Ketoprofenate [[L-ValOiPr][KETO]]”: in series [1], the Solubility in chloroform entry is on record as “+/− (partially soluble 33–100 g L^−1)”, the “Solubility in diethyl ether” value is listed as “+ (soluble >100 g L^−1)”, the Solubility in ethanol result is “+ (soluble >100 g L^−1)” and the “Solubility in ethyl acetate” value is “− (insoluble <33 g L^−1)”. In addition, in series [1], the Solubility in n-hexane entry was “− (insoluble <33 g L^−1)”, the Solubility in toluene entry is reported as “+ (soluble >100 g L^−1)” and the Solubility in water result is “− (insoluble <33 g L^−1)”.
